# Binding of CDR-mutated scFvs to a peptide of the spike HR2 region

Values reported by Li et al. 2023, doi:10.1038/s41467-023-39022-2 (FLAb copy).

The target is the same throughout: PDVDLGDISGINAS, from the HR2 region of SARS-CoV-2 spike.

Parent: Ab-14, a human scFv built as VH, a 15-residue (Gly4Ser)3 linker, VL. Only the CDRs of the heavy chain vary.
VH: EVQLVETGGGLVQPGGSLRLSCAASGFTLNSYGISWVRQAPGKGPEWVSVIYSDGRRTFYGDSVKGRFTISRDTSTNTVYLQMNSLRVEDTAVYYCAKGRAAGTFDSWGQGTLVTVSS
VL: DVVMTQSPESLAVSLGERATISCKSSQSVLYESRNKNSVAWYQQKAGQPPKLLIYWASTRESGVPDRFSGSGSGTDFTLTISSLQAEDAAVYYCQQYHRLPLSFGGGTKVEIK

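The parent was found by panning a naive human phage display library on the peptide. Designed CDR sequences, proposed from the first random library and measured here. Their group label is 14H_GPLM_Gen (GPLM: also part of the Gaussian process libraries; Gen: genetic algorithm; a sequence that several methods proposed may carry one label only). AlphaSeq pools MATa yeast showing the antibodies with MATalpha yeast showing the peptide. After mating in shaken culture at 30 °C for 16 h, diploids were selected and their barcode pairs sequenced. Read counts were normalised to the haploid input and turned into Kd by a linear fit to BCL2-family pairs of known affinity, for each replicate. There are six technical replicates.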

Each variant is given by its three heavy chain CDRs, as the data file delimits them; those of the parent are GFTLNSYGIS, VIYSDGRRTFYGDSVK, GRAAGTFDS. Values are log10 of the apparent Kd in nM; lower means stronger binding. Averages over replicates are reported, and they cover detected replicates only. "ND" marks a missing value. The strain was present, yet no cells mated with the target were sequenced in that replicate, which points to weak or no binding.

| CDR-H1 | CDR-H2 | CDR-H3 | replicates, log10 nM | mean, log10 nM | signal with controls |
|---|---|---|---|---|---|
| GFNLNSYGIS | VIYSDGRRTFYGDSVK | GRTAGTFDS | 0.73 0.56 0.31 0.24 0.67 0.33 | 0.47 | 0/18 |
| GFTLNDYGIS | VIYSDGKRTFYGDSVK | GRTAGTFDS | -0.21 0.17 -0.70 -0.50 0.01 1.15 | -0.02 | 0/18 |
| GFHLNSYGIS | VIYSDGRRTFYGDSVK | GRTAGTFDS | -0.26 0.01 0.48 0.79 0.20 0.37 | 0.27 | 0/18 |
| GFSLNSYGIS | VIYSDGRRTFYGDDVK | GQAAGTFDL | 0.87 1.22 0.98 0.96 1.04 0.93 | 1.00 | 0/18 |
| KFSLNSYGIS | VIYSDGRRTFYSDSVK | GEAAGTFDS | 1.06 1.38 0.79 2.29 0.65 1.30 | 1.24 | 0/18 |
| GFTLNSYGIS | VIYSDGRRTFYSDSVK | GEVAGTFDS | 0.25 -0.21 -0.24 -0.21 -0.30 0.08 | -0.10 | 0/18 |
| GFSLNSYGIS | VIYSDGRRTFYCDSVK | GQAAGTFDS | ND ND 1.65 ND ND ND | 1.65 | 0/18 |
| GFSLNEYGIS | VIYSDGRRTFYGDSVK | GHAAGTFDL | 0.63 -0.17 0.29 -0.09 0.05 0.05 | 0.13 | 0/18 |
| GFTLNSYGIS | VIYSDGKRTFYIDSVK | GRTAGTFDS | ND ND ND ND ND ND | ND | 0/18 |
| GFTLNSYGIS | VIYSDGRRTFYGDSVK | GREAGTFDT | 1.44 1.24 1.11 0.84 1.08 1.13 | 1.14 | 0/18 |
| GMSLNEYGIS | VIYSDGRRTFYGDSVK | GRTAGTFDS | 1.86 1.87 1.12 1.23 1.87 1.49 | 1.57 | 0/18 |
| GFDLNSYGIS | VIYSDGRRTFYADSVK | GRAAGTFDA | 1.11 1.02 1.07 0.74 1.10 0.83 | 0.98 | 1/18 (3.00) |
| GFTLNSYGIS | VIYSDGLRTFYSDSVK | GQAAGTFDS | 0.67 1.06 0.43 0.71 1.02 0.72 | 0.77 | 1/18 (2.51) |
| GFQLNSYGIS | VIYSDGRRTFYIDSVK | GRAAGTFDS | ND ND ND ND ND ND | ND | 0/18 |
| GFSLNSYGIS | VIYSDGRRTFYIDSVK | GREAGTFDS | 1.05 0.27 -0.03 0.08 -0.18 0.31 | 0.25 | 0/18 |
| GFSLNSYGIS | VIYSDGRRTAYADSVK | GRTAGTFDS | 0.44 -0.11 -0.30 -0.40 -0.23 0.34 | -0.05 | 0/18 |
| GFTLNSYGIS | VIYADGKRTFYGDSVK | GKAAGTFDS | -0.18 -0.42 -0.23 -0.58 0.16 -0.43 | -0.28 | 0/18 |
| GFSLNEYGIS | VIYSDGRRTFYVDSVK | GQAAGTFDS | 0.31 0.18 -0.01 -0.11 -0.01 0.20 | 0.09 | 1/18 (2.22) |
| GFLLNSYGIS | VIYSDGRRTFYADSVK | GQTAGTFDS | 1.26 0.49 0.30 1.26 0.87 1.13 | 0.89 | 0/18 |
| GFTLNSYGIS | VIYSDGRRTFYDDSVK | GQTAGTFDS | 0.50 1.63 1.26 0.59 2.22 1.55 | 1.29 | 0/18 |
| GFSLNSYGIS | VIYSDGRRTFYADSVK | GSAAGTFDS | 0.12 -0.34 -0.02 -0.18 0.01 0.04 | -0.06 | 0/18 |
| GFSLNSYGIS | VIYSDGRRTFYGDSVK | GRQAGTFDT | 0.26 -0.10 1.38 0.28 -0.47 0.57 | 0.32 | 0/18 |
| GFTLNSYGIS | VIYSDGRRTFYIDSVK | GQLAGTFDS | 1.36 1.87 1.57 1.81 ND ND | 1.65 | 0/18 |
| GFSLNNYGIS | VIYSDGRRTFYSDSVK | GQAAGTFDS | 0.86 0.73 0.59 0.19 0.59 0.52 | 0.58 | 0/18 |
| GFELNSYGIS | VIYSDGRRTFYQDSVK | GRTAGTFDS | 0.88 -0.09 -0.82 -0.81 0.09 -0.18 | -0.15 | 0/18 |
| GFTLNEYGIS | VIYSDGRRTFYGDSVK | GRTAGTFDN | 0.71 -0.49 0.13 0.09 0.46 -0.16 | 0.12 | 0/18 |
| GFKLNEYGIS | VIYSDGRRTFYGDSVK | GRTAGTFDS | 0.52 0.64 0.42 0.69 0.49 0.90 | 0.61 | 0/18 |
| GFSLNSYGIS | VIYSDGRRTFYGDKVK | GEAAGTFDS | 0.51 0.60 0.38 0.24 0.44 0.44 | 0.43 | 0/18 |
| KFSLNSYGIS | VIYSDGRRTFYGDSVK | GRTAGTFDS | ND ND ND ND ND ND | ND | 0/18 |
| GFSLNSYGIS | VIYSDGRRTFYGDSVK | GRTAGTFDF | 0.30 -0.23 0.46 0.24 0.01 1.26 | 0.34 | 0/18 |
| GFALNSYGIS | VIYADGRRTFYGDSVK | GEAAGTFDS | -0.03 -0.31 -0.26 -0.21 -0.19 -0.39 | -0.23 | 0/18 |
| GFNLNSYGIS | VIYSDGRRTFYADSVK | GKAAGTFDS | 0.22 -0.13 -0.36 -0.06 0.81 0.83 | 0.22 | 0/18 |
| GFELNSYGIS | VIYSDGRRTFYADSVK | GQAAGTFDS | 0.61 0.05 0.05 -0.15 0.27 0.43 | 0.21 | 0/18 |
| GFSINSYGIS | VIYSDGRRTFYSDSVK | GQAAGTFDS | 0.27 0.46 0.13 0.20 0.32 1.28 | 0.44 | 0/18 |
| GFTLNEYGIS | VIYSDGQRTFYGDSVK | GRHAGTFDS | 1.31 2.27 0.74 ND 1.43 0.91 | 1.33 | 0/18 |
| GFSLNSYGIS | VIYSDGRRTFYIDSVK | GQAAGTFDS | 1.01 0.19 1.07 0.03 0.21 1.00 | 0.59 | 2/18 (1.86) |
| GFSLNSYGIS | VIYSDGRRTFYADSVK | GRWAGTFDS | 0.92 0.73 1.01 0.41 1.17 0.69 | 0.82 | 0/18 |
| GFSLNSYGIS | VIYSDGRRTFYADSVK | GKTAGTFDS | 0.77 0.39 0.56 0.25 0.36 0.78 | 0.52 | 2/18 (2.00) |
| GFTLNSYGIS | VIYSDGVRTFYSDSVK | GKAAGTFDS | 1.00 0.86 0.88 1.08 0.94 0.93 | 0.95 | 2/18 (2.17) |
| GFSLNEYGIS | VIYSDGRRTFYRDSVK | GRTAGTFDS | ND ND ND ND ND ND | ND | 0/18 |
| GFELNSYGIS | VIYSDGRRTFYSDSVK | GEAAGTFDT | 0.49 0.61 1.25 0.57 0.84 0.81 | 0.76 | 0/18 |
| GKSLNSYGIS | VIYSDGRRTFYSDSVK | GRTAGTFDS | 1.89 2.45 1.31 2.02 1.93 1.62 | 1.87 | 1/18 (3.30) |
| GFSLNSYGIS | VIYSDGRRTFYADSVK | GHLAGTFDS | 0.37 0.29 -0.10 -0.13 1.81 1.22 | 0.58 | 0/18 |
| GFSLNSYGIS | VIYSDGRRTFYGDSVK | GRQAGTFDN | 1.20 1.59 1.88 0.99 2.36 ND | 1.60 | 1/18 (2.57) |
| GFTLNSYGIS | VIYADGRRTFYGDSVK | GWAAGTFDS | 0.88 1.45 0.40 0.45 0.52 0.68 | 0.73 | 0/18 |
| GFSLNSYGIS | VIYSDGQRTFYGDSVK | GQTAGTFDS | 0.28 0.16 0.19 0.33 0.59 0.44 | 0.33 | 1/18 (2.16) |
| GFTLNSYGIS | VIYSDGRRTFYTDSVK | GEAAGTFDS | 0.78 0.73 2.21 0.14 0.74 1.95 | 1.09 | 0/18 |
| KFNLNSYGIS | VIYSDGRRTFYADSVK | GQAAGTFDS | ND ND ND ND ND ND | ND | 0/18 |
| GFALNSYGIS | VIYADGRRTFYGDSVK | GQAAGTFDS | 0.32 0.07 -0.35 -0.01 -0.30 0.25 | 0.00 | 0/18 |

The 4 strongest on average among those seen in every replicate, once more:

CDR-H1	CDR-H2	CDR-H3	replicates, log10 nM	mean, log10 nM	signal with controls
GFTLNSYGIS	VIYADGKRTFYGDSVK	GKAAGTFDS	-0.18 -0.42 -0.23 -0.58 0.16 -0.43	-0.28	0/18
GFALNSYGIS	VIYADGRRTFYGDSVK	GEAAGTFDS	-0.03 -0.31 -0.26 -0.21 -0.19 -0.39	-0.23	0/18
GFELNSYGIS	VIYSDGRRTFYQDSVK	GRTAGTFDS	0.88 -0.09 -0.82 -0.81 0.09 -0.18	-0.15	0/18
GFTLNSYGIS	VIYSDGRRTFYSDSVK	GEVAGTFDS	0.25 -0.21 -0.24 -0.21 -0.30 0.08	-0.10	0/18

Empty control strains, which show no peptide, gave a signal in 1% of pairings with all heavy chain designs; the median was 2.08 and 95% of these signals were weaker than 0.84. No background was subtracted. Also given: how often the same scFv was detected with the empty control strains, with their mean in brackets. Of ten entries with the parent sequence, four were seen in most replicates (averages 0.34 to 2.37), three in one and three in none, so single entries are noisy. The authors averaged sequences with at least three values out of six and counted those with two or fewer as poor binders. Values of this round are not directly comparable with the first-round values of the same sequences.